Test: Metabolic stability and uptake in rat brain (striatum, cerebellum)
Type: in vivo, rat (male BNL R strain)
Conditions: for Ave. & Inj. Dose per Region / Ave. % of Total Radioactivity Extracted: n = 2
Experimental: To investigate the metabolic stability of [^18 F]-N-methylspiroperidol in the central nervous system, its stability in rat brain studied (Table 2). […] However, rat striatal uptake of the N-methyl radioligand was five-fold higher than with [^18 F]spiroperidol.
Four male BNL R strain rats (350-380 g) (Brookhaven National Laboratory, Upton, N.Y.) were injected with 1.4 to 1.8 mCi of [^18 F]-N-methylspiroperidol, i.v. At 1 or 4 hrs after injection (2 animals each), the animal was killed and the combined striata and cerebellum were separately counted and homogenized in a mixture of 1 ml of MeOH and 2 ml of 0.4M HClO4. The samples were centrifuged, and the entire supernates were analyzed for unchanged [^18 F]-N-methylspiroperidol.

CN1CN(c2ccccc2)C2(CCN(CCCC(=O)c3ccc([18F])cc3)CC2)C1=O [[^18 F]-N-methylspiroperidol]
distribution and stability compared with [^18 F]spiroperidol (Examples 3 and 5): superior
Ave. & Inj. Dose per Region (rat cerebellum, 1 h after injection, ind. values 0.0149, 0.0141): 0.0145
Ave. % of Total Radioactivity Extracted (rat cerebellum, 1 h after injection, ind. values 74, 74): 74%
Ave. & Inj. Dose per Region (rat cerebellum, 4 h after injection, ind. values 0.0025, 0.0024): 0.0024
Ave. % of Total Radioactivity Extracted (rat cerebellum, 4 h after injection, ind. values 77, 74): 76%
Ave. & Inj. Dose per Region (rat striatum, 1 h after injection, ind. values 0.0712, 0.0612): 0.0662
Ave. % of Total Radioactivity Extracted (rat striatum, 1 h after injection, ind. values 88, 90): 89%
Ave. & Inj. Dose per Region (rat striatum, 4 h after injection, ind. values 0.0723, 0.0653): 0.0688
Ave. % of Total Radioactivity Extracted (rat striatum, 4 h after injection, ind. values 88, 88): 88%
rat striatal uptake relative to [^18 F]spiroperidol (rat striatum, N-methyl radioligand higher): five-fold
absolute amount in the striatum (rat, 1 to 4 hrs after injection): remaining constant from 1 to 4 hrs after injection

Source: patent publication USH1209H, “No-carrier-added (18F)-N-methylspiroperidol” (The United States of America as represented by the United …, priority 1985, dated 1993)
